Assay results: patent publication US20070123718A1, “Novel 4-amino-2(5H)-furanones” (Aston University, priority 2003, published 2007)

Sequences of proteins named here, by UniProt entry; tags and fusion partners are left off. Residues count along the entry.
UniProt H0VZC5, 1-426: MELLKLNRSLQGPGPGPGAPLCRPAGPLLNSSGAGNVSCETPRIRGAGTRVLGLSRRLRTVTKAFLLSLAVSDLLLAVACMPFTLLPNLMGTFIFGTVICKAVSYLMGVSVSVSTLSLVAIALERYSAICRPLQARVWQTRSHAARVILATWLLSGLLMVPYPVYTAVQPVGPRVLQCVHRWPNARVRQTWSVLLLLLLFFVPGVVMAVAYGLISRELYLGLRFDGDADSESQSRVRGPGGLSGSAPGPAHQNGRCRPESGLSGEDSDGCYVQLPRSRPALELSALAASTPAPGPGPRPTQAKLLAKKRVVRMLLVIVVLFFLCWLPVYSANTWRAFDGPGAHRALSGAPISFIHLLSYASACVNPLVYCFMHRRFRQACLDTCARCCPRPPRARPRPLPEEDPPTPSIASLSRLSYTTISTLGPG

Target: CCKB receptor (guinea pig cerebral cortex) (Cavia porcellus, UniProt H0VZC5)
Experiment: 125I-CCK-8 receptor binding assay, CCKB
Conditions: read-out: Activity CCK-B [μM] (IC50); Table 2; guinea pig cerebral cortex membranes
Method: CCKA and CCKB receptor binding assays were performed, by using guinea pig cerebral cortex (CCKB) or rat pancreas (CCKA). Male guinea pig brain tissues were prepared according to the modified method described by Saita et al, [(1994), Characterization of YM022: its CCKB/gastrin receptor binding profile and antagonism to CCK-8-induced Ca2+mobilization., Eur. J. Pharmacol.,269, 249-254]. Pancreatic membranes were prepared in a similar way but by Charpentier et al, [(1988), Cyclic cholecystokinin analogues with high selectivity for central receptors., Proc Natl Acad Sci USA, 85, 1968-1972]. The […] CCK binding assay: Tissues were homogenized in ice cold sucrose (0.32 M, 25 ml) for 15 strokes at 500 rpm and centrifuged at 13000 rpm for 10 mins. The supernatant was re-centrifuged at 13000 rpm for 20 mins. The resulting pellet was re-dispersed to the required volume of buffer at 500 rpm and stored in aliquots at […].
Binding was achieved using a radioligand ^125I-Bolton-Hunter labeled CCK, NEN at 25 pM. The samples were incubated {with membranes (0.1 mg/ml) } in 20 mM Hepes, 1 mM EGTA, 5 mM MgCl2, 150 mm NaCl, 0.25 mg/ml bacitracin at pH 6.5 for 2 hrs at RT and then […] by centrifugation at 1100 rpm for 5 minutes. The membrane pellets were washed twice with water and the bound radioactivity was measured in a Packard Cobra Auto-gamma counter (B5005). […]

IC50: > 20 µM
SMILES: CC(=O)OC1OC(=O)C(Cl)=C1N1CCN(Cc2ccccc2)CC1 (stereo not shown)
